From PubChem BioAssay AID602274 (Sanford-Burnham Center for Chemical Genomics, 2012) come the findings set out here.

Molecules are shown by their SMILES. The list shows a part of the results, in another mix than the full data. Activity calls are given as the source filed them. No stated cut-off is given here; in the data, active means survival enhancement above about 18%; inactive means the rest.

The assay can be described thus: compounds raising survival of dissociated human iPSCs – cell-based, ATPlite luminescence, primary screen (AID 602274).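 Further: cells exposed to compounds for 16 hours before the ATP read.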 The note with it: hiPSC single-cell survival, at 20 µM, active compounds read high, 100% = ROCK inhibitor wells, 0% = DMSO.
On to `CC(C)(C)c1ccc(OP(C)(=O)O)cc1`, for which the survival enhancement is inactive: 4.4%.

Turning to `CN(C)C(=O)c1c([N+](=O)[O-])cc([N+](=O)[O-])cc1[N+](=O)[O-]`, the survival enhancement is inactive: -2.4%.

As to `CP(=O)(Oc1ccccc1)OC(c1ccccc1)C(F)(F)F` (configuration not stated), the survival enhancement is inactive: 0.5%.

For the compound `Cc1cccc(C)c1OP(C)(=O)Nc1ccc(SC(F)(F)F)cc1` (configuration not stated), the survival enhancement was inactive: -1.1%.

For the compound `Cc1ccc(Nc2c([N+](=O)[O-])cc([N+](=O)[O-])cc2[N+](=O)[O-])cc1`, the survival enhancement is inactive: -2.5%.

For the compound `CP(=O)(Nc1ccc(SC(F)(F)F)cc1)Oc1ccc(Cl)cc1` (configuration not stated), the survival enhancement was inactive: 0.2%.

As to `Cc1cc(C)cc(OP(C)(=O)Nc2ccc(SC(F)(F)F)cc2)c1` (configuration not stated), the survival enhancement is inactive: 1.6%.

Regarding `CP(=O)(NC(=O)Nc1ccccc1)Oc1ccccc1` (configuration not stated), the survival enhancement is inactive: -2.6%.

For `CCc1ccc(OP(C)(=O)N2CCN(c3ccc([N+](=O)[O-])cc3)CC2)cc1` (configuration not stated), the survival enhancement was inactive: -0.4%.

`CCOP(C)(=S)SCC(=O)NC(C)C(=O)O` (configuration not stated): the survival enhancement is inactive: 2.6%.

As to `CCOC(=O)c1ccc(NP(C)(=O)Oc2ccc(OC)cc2)cc1` (configuration not stated), the survival enhancement is inactive: -0.6%.

On to `O=[N+]([O-])c1cc([N+](=O)[O-])c(O)c([N+](=O)[O-])c1.c1ccc(Oc2ccncc2)cc1`, for which the survival enhancement is inactive: -0.1%.

On to `CP(=O)(Nc1ccccn1)Oc1ccc(Cl)cc1` (configuration not stated), for which the survival enhancement was inactive: -1.1%.

Consider `CCCCOc1ccc(C(=O)NCC2(N3CCCCC3)CCCCC2)cc1OC`, for which the survival enhancement is inactive: -0.7%.

Regarding `CP(=S)(Nn1cnnc1)Oc1ccccc1` (configuration not stated), the survival enhancement was inactive: -3.2%.

`COc1ccccc1OP(C)(=O)Nc1ccccc1` (configuration not stated): the survival enhancement was inactive: 2.2%.

`CP(=O)(Nc1ccccc1Br)Oc1ccccc1` (configuration not stated): the survival enhancement was inactive: 1.3%.

Consider `O=[N+]([O-])c1cc([N+](=O)[O-])c(Nc2cccnc2)c([N+](=O)[O-])c1`, for which the survival enhancement is inactive: -2.4%.

On to `COc1cc(C(=O)NCC2(N3CCOCC3)CCCCC2)ccc1OCC(C)C`, for which the survival enhancement is inactive: -0.5%.

Turning to `Cc1cccc(C)c1OP(C)(N)=O` (configuration not stated), the survival enhancement was inactive: 0.1%.

With `CC(C)(C)c1ccc(OP(C)(=O)Nc2ccc(SC(F)(F)F)cc2)cc1` (configuration not stated), the survival enhancement was inactive: 1.9%.

Turning to `O=[N+]([O-])c1ccc2c(c1)C=Nc1ccccc1O2`, the survival enhancement is inactive: -0.3%.

With `CCOC(=O)c1ccc(NP(C)(=O)Oc2ccccc2)cc1` (configuration not stated), the survival enhancement is inactive: 3.8%.

`Cc1ccc(NP(C)(=O)Oc2ccccc2)c(C)c1` (configuration not stated): the survival enhancement was inactive: -0.2%.

On to `COc1ccccc1OP(C)(=O)Nc1ccc(C)cc1` (configuration not stated), for which the survival enhancement is inactive: 4.8%.

Regarding `COc1ccc(OP(C)(=O)Nc2cccc(F)c2)cc1` (configuration not stated), the survival enhancement is inactive: 6.1%.

For the compound `COc1ccccc1OP(C)(=O)Nc1cc(Cl)ccc1C` (configuration not stated), the survival enhancement is inactive: 2.7%.

`Cc1cc(C)cc(OP(C)(N)=O)c1` (configuration not stated): the survival enhancement is inactive: -0.3%.

Turning to `CCN(CC)CCCOC(=O)C(O)(c1ccccc1)c1ccccc1`, the survival enhancement is inactive: 0.1%.

For `COc1ccccc1-c1ccccn1.O=[N+]([O-])c1cc([N+](=O)[O-])c(O)c([N+](=O)[O-])c1`, the survival enhancement is inactive: 5.1%.

With `COc1ccccc1OP(C)(=O)Nc1cccc(Br)c1` (configuration not stated), the survival enhancement was inactive: -0.3%.

For `COc1cc(C(=O)NCC2(N3CCOCC3)CCCCC2)cc(Cl)c1OC(C)C`, the survival enhancement is inactive: -1.4%.

Regarding `Cc1cc(C)cc(OP(C)(=O)Nc2ccc(C)cc2C)c1` (configuration not stated), the survival enhancement was inactive: -1.4%.

For `CCOC(=O)c1ccc(NP(C)(=O)Oc2cc(C)cc(C)c2)cc1` (configuration not stated), the survival enhancement is inactive: -0.8%.

Consider `Cc1cc(C)cc(OP(C)(=O)Nc2ccccn2)c1` (configuration not stated), for which the survival enhancement was inactive: -0.3%.

For the compound `CP(=O)(Nc1cccc(Br)c1)Oc1ccccc1` (configuration not stated), the survival enhancement was inactive: -0.4%.

For `Cc1ccc(C)c(NP(C)(=O)Oc2ccccc2)c1` (configuration not stated), the survival enhancement was inactive: 0.9%.

For the compound `O=C(O)c1cccc(Nc2c([N+](=O)[O-])cc([N+](=O)[O-])cc2[N+](=O)[O-])c1`, the survival enhancement is inactive: -0.1%.

In the case of `CC1=NCCc2c1[nH]c1ccccc21.O=[N+]([O-])c1cc([N+](=O)[O-])c(O)c([N+](=O)[O-])c1`, the survival enhancement is inactive: 6.1%.

On to `CCOC(=O)C(CC)C1=NC(C)(C)Cc2ccccc21.O=[N+]([O-])c1cc([N+](=O)[O-])c(O)c([N+](=O)[O-])c1` (configuration not stated), for which the survival enhancement is inactive: -0.1%.

As for `CN(C)C1(CNC(=O)c2ccc(S(C)(=O)=O)cc2)CCCCC1`, the survival enhancement is inactive: -0.3%.

On to `CC1=C2N=C(C=C3N=C(C(C)=C4[N-][C@@](C)([C@@H]5N=C1[C@](C)(CCC(=O)NC[C@@H](C)OP(=O)([O-])O[C@H]1[C@@H](O)[C@@H](n6cnc7cc(C)c(C)cc76)O[C@@H]1CO)[C@H]5CC(N)=O)[C@@](C)(CC(N)=O)[C@@H]4CCC(N)=O)[C@@](C)(CC(N)=O)[C@@H]3CCC(N)=O)C(C)(C)[C@@H]2CCC(N)=O.[C-]#N.[Co+3]`, for which the survival enhancement was inactive: -1.2%.

Consider `O=[N+]([O-])c1cc([N+](=O)[O-])c(Nc2nnnn2CCO)c([N+](=O)[O-])c1`, for which the survival enhancement was inactive: 0.1%.

Turning to `COc1ccccc1OP(C)(=O)Nc1c(C)cccc1C` (configuration not stated), the survival enhancement was inactive: 0.1%.

Take `CN1CCCCC1COC(=O)C1(O)c2ccccc2CCc2ccccc21` (configuration not stated): the survival enhancement is inactive: -0.5%.

On to `CCCOc1ccc(NP(C)(=O)Oc2ccc(Cl)cc2)cc1` (configuration not stated), for which the survival enhancement was inactive: -1.4%.

For the compound `CP(=O)(Nc1ccc(SC(F)(F)F)cc1)Oc1ccccc1` (configuration not stated), the survival enhancement was inactive: 1.1%.

For the compound `COc1ccc(-c2ccccn2)cc1.O=[N+]([O-])c1cc([N+](=O)[O-])c(O)c([N+](=O)[O-])c1`, the survival enhancement was inactive: -0.5%.

In the case of `O=[N+]([O-])c1cc([N+](=O)[O-])c(-n2nnc3ccccc32)c([N+](=O)[O-])c1`, the survival enhancement was inactive: -0.4%.

For `CN(Cc1cccnc1)C(=O)COc1ccc(Cl)c(Cl)c1.O=[N+]([O-])c1cc([N+](=O)[O-])c(O)c([N+](=O)[O-])c1`, the survival enhancement was inactive: 1.7%.

Regarding `O=[N+]([O-])c1cc([N+](=O)[O-])c(-c2cnn(-c3ccccc3)c2)c([N+](=O)[O-])c1`, the survival enhancement was inactive: -0.5%.

Turning to `Cc1nc2ccc3ccccc3c2s1.O=[N+]([O-])c1cc([N+](=O)[O-])c(O)c([N+](=O)[O-])c1`, the survival enhancement is inactive: 4.6%.
